# Apparent affinities of Ab-91 variants for a coronavirus HR2 peptide

Target peptide (SARS-CoV-2 spike, HR2 region): PDVDLGDISGINAS

Parent scFv Ab-91: VL joined to VH by a (GGGGS)3 linker. Changes lie in the heavy chain CDRs alone.
VL: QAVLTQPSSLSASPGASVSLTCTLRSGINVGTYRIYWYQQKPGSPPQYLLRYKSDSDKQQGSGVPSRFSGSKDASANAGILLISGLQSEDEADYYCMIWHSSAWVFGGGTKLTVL
VH: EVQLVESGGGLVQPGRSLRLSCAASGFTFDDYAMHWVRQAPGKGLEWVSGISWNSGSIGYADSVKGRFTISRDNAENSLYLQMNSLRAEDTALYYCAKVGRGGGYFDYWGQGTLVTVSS

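The parent was found by panning a naive human phage display library on the peptide. The library (AAYL51) carries one to three amino acid substitutions per variant, with no insertions or deletions. The assay is AlphaSeq: two haploid yeast populations carry antibody and antigen on their surface. The frequency of each diploid, read from paired DNA barcodes, reflects how well the two displayed proteins bind. Read counts were normalised to the haploid input and turned into Kd by a linear fit to BCL2-family pairs of known affinity, for each replicate. There are three technical replicates.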

Substitutions are numbered in sequence along the VH above, starting at 1 (not Kabat). Affinities are written as log10 Kd with Kd in nM; a lower number is a better binder. An entry "nd" has no value in the source: the pair was not observed among the diploids in that replicate. This suggests poor binding but is not conclusive. Nonspecific signal, from three strains lacking the peptide, appeared in 21% of pairings of library AAYL51, centred on 4.54 (5% of these signals below 3.26); values are not corrected for it. For each scFv, signals with the empty controls are counted beside the result, with their mean in brackets.

changes | replicates, log10 nM | empty controls
A33T S63Y R101D | nd / nd / nd | 2 of 9 (3.08)
D31M S52G R101G | 1.47 / 1.46 / 1.09 | 2 of 9 (3.75)
S52M I58N S63H | 4.57 / nd / nd | 1 of 9 (4.04)
A33Q S55G D107S | nd / 4.63 / nd | 2 of 9 (4.12)
Y60I G104C Y108R | 1.74 / 1.45 / 1.19 | 1 of 9 (4.25)
G50C | nd / nd / nd | 2 of 9 (4.30)
M34S N54L S57N | nd / nd / nd | 0 of 9
I58K A61E Y105W | 3.12 / 3.42 / nd | 5 of 9 (4.00)
G50M I51S | nd / 3.90 / 5.01 | 8 of 9 (4.89)
W53G G100T Y108V | nd / nd / nd | 2 of 9 (4.68)
G50K V64K R101K | 3.26 / nd / nd | 0 of 9
I58M Y60D G103E | 6.10 / 4.58 / nd | 5 of 9 (4.99)
D31Q H35F | nd / nd / nd | 0 of 9
D31H W53Y S55V | 1.06 / 1.12 / 0.51 | 5 of 9 (4.71)
F27W S57R V99W | nd / 4.62 / nd | 1 of 9 (4.19)
G26M F27V V64F | 4.22 / nd / nd | 2 of 9 (3.55)
S52Q | 3.22 / nd / nd | 0 of 9
I51D K65F | nd / 5.81 / nd | 1 of 9 (3.20)
D30S S55C I58S | 0.89 / 0.90 / 0.51 | 4 of 9 (4.87)
R101K G102T | nd / nd / nd | 3 of 9 (4.61)
I51Q S55L S57Q | nd / nd / nd | 2 of 9 (4.29)
F29M G100E G103D | 2.12 / 2.31 / 2.18 | 5 of 9 (4.07)
N54D G56C Y105S | 1.02 / 1.08 / 0.60 | 4 of 9 (4.51)
G26K K65D V99K | 4.26 / nd / 5.09 | 3 of 9 (4.32)
N54V S55K D107V | nd / 4.79 / nd | 2 of 9 (3.44)
F27H F29M V64E | 3.67 / nd / nd | 3 of 9 (4.46)
S63T Y105Q F106P | nd / nd / 3.71 | 3 of 9 (4.14)
F29M G59I V64Q | 2.93 / nd / nd | 0 of 9
G50E G59C G103I | nd / nd / nd | 1 of 9 (3.59)
S63H V99Y D107A | 1.10 / 0.84 / 0.54 | 2 of 9 (4.94)
D30C G56K G100Y | nd / nd / nd | 0 of 9
Y32R M34D | 3.85 / nd / nd | 1 of 9 (3.73)
H35M A61M Y105G | nd / nd / nd | 0 of 9
R101N | 2.47 / 2.52 / 2.28 | 5 of 9 (4.97)
F29N Y32L D62G | 3.72 / nd / nd | 1 of 9 (3.30)
G26F A33T F106Y | nd / nd / nd | 0 of 9
D31I N54H Y60A | 4.47 / nd / nd | 0 of 9

The first 5 variants above that were never detected:

changes	replicates, log10 nM	empty controls
A33T S63Y R101D	nd / nd / nd	2 of 9 (3.08)
G50C	nd / nd / nd	2 of 9 (4.30)
M34S N54L S57N	nd / nd / nd	0 of 9
W53G G100T Y108V	nd / nd / nd	2 of 9 (4.68)
D31Q H35F	nd / nd / nd	0 of 9

Values reported by Engelhart et al. 2022, doi:10.1038/s41597-022-01779-4 (FLAb copy).